Broadly, the EC50 is the concentration that produces a half-maximal response.

The assay addresses T1, rat NPRA (Rattus norvegicus, UniProt P18910).
T1 construct: Full-Length cDNA Cloning and Generation of Cell Lines Overexpressing Natriuretic Peptide Receptors (NPRs); expressed in transfected cells; host or cells: Jump-in T-Rex HEK293 cells, pJTI R4 CMV-TO MCS pA vector, tetracycline induction
T1 sequence (P18910 29-1057): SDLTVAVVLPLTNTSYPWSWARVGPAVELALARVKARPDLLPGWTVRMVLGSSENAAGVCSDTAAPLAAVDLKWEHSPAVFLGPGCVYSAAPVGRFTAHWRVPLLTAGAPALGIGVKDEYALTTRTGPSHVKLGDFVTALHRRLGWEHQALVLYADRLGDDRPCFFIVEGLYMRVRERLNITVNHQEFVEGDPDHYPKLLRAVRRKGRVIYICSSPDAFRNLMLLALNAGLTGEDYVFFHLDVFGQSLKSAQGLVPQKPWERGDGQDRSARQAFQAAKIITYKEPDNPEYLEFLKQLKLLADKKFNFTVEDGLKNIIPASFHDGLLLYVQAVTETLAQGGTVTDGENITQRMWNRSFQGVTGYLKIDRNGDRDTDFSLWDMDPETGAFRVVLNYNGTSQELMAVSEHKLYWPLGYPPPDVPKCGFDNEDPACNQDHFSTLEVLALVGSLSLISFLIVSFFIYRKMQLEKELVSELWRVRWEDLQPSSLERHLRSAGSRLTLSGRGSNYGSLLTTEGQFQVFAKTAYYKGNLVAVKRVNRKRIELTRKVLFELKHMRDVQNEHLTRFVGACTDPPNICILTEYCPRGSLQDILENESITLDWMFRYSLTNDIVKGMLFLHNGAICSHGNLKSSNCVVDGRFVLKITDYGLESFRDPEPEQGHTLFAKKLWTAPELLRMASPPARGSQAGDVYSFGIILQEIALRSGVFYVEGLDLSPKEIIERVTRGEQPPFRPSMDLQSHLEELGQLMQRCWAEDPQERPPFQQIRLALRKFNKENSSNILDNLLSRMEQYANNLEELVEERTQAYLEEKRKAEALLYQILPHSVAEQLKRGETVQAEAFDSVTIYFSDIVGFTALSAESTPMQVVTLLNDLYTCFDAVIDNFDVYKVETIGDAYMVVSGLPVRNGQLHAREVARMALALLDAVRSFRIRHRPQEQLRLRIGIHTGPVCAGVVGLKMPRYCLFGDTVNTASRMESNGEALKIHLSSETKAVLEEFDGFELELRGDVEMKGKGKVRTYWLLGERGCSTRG
As to the kind of experiment: Rat NPRA cGMP activity assay (HTRF) in HEK293 cells overexpressing NPRA. Type of assay: cell-based. Put shortly: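 Tetracycline-induced (300 ng/mL, 48 h) T-Rex HEK293 cells expressing NPRA, 4000 cells/well, treated 40 min at room temperature with polypeptide (8 points, 10 μM to 1 pM) in HBSS/HEPES buffer with 0.5 mM IBMX, pH 7.4. cGMP by HTRF, normalised to 100 nM amidated rat ANP and buffer.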

[1] abbreviates: cGMP Assay (EC50, pM) w/BSA rNPRA, assay buffer with 0.1% BSA.
The mark [2] stands for this setting: cGMP Assay (EC50, pM) w/Casein rNPRA, assay buffer with 0.1% casein.

Regarding `CC[C@H](C)[C@@H]1NC(=O)[C@H](CCCNC(=N)N)NC(=O)[C@H](CC(=O)O)NC(=O)[C@H]([C@@H](C)CC)NC(=O)[C@H](CCCNC(=N)N)NC(=O)CNC(=O)CNC(=O)[C@H](Cc2ccccc2)NC(=O)[C@@H](NC(=O)[C@H](CO)NC(=O)[C@H](CO)NC(=O)[C@H](CCCNC(=N)N)NC(=O)[C@H](CCCNC(=N)N)NC(=O)[C@H](Cc2ccncc2)NC(=O)[C@H](CO)NC(=O)CNC(=O)[C@H](CCCCN)NC(=O)[C@H](CCC(=O)O)NC(=O)[C@H](CCCCN)NC(=O)[C@H](CCC(=O)O)NC(=O)[C@H](CCCCN)NC(=O)[C@H](CCC(=O)O)NC(=O)CC[C@H](NC(=O)CCCCCCCCCCCCCCCCCCC(=O)O)C(=O)O)CSCSC[C@@H](C(=O)N2CCC[C@H]2C(=O)N[C@@H](CO)C(=O)N[C@@H](Cc2ccccc2)C(=O)N[C@@H](CCCNC(=N)N)C(=O)N[C@@H](Cc2c[nH]cn2)C(=O)NCC(=O)NCC(=O)N[C@@H](CO)C(=O)N[C@@H](CO)C(=O)NCC(=O)N[C@@H](C)C(=O)N2CCC[C@H]2C(=O)N2CCC[C@H]2C(=O)N2CCC[C@H]2C(=O)N[C@@H](CO)C(N)=O)NC(=O)CNC(=O)[C@H](CC(C)C)NC(=O)CNC(=O)[C@H](CO)NC(=O)[C@H](CCC(N)=O)NC(=O)[C@H](Cc2c[nH]cn2)NC(=O)CNC1=O` [Example 66], the EC50 is, setting by setting: under setting [1], 1.75e+06 pM; under setting [2], 9770 pM.

On to `CC[C@H](C)[C@@H]1NC(=O)[C@H](CCCNC(=N)N)NC(=O)[C@H](CC(=O)O)NC(=O)[C@H]([C@@H](C)CC)NC(=O)[C@H](CCCNC(=N)N)NC(=O)[C@H](CCCCN)NC(=O)CNC(=O)[C@H](Cc2ccccc2)NC(=O)[C@@H](NC(=O)[C@H](CO)NC(=O)[C@H](CO)NC(=O)[C@H](CCCNC(=N)N)NC(=O)CCNC(=O)[C@H](CCCCN)NC(=O)[C@H](CCC(=O)O)NC(=O)CCOCCOCCOCCOCCOCCOCCOCCOCCOCCOCCOCCOCCOCCOCCOCCOCCOCCOCCOCCOCCOCCOCCOCCOCCNC(=O)CNC(=O)[C@H](CCCCN)NC(=O)[C@H](CCC(=O)O)NC(=O)[C@H](CCCCN)NC(=O)[C@H](CCC(=O)O)NC(=O)[C@H](CCCCN)NC(=O)[C@H](CCC(=O)O)NC(=O)CC[C@H](NC(=O)CCCCCCCCCCCCCCCCCCC(=O)O)C(=O)O)CSCSC[C@@H](C(=O)N2CCC[C@H]2C(=O)N[C@@H](CO)C(=O)N[C@@H](Cc2ccccc2)C(=O)N[C@@H](CCCNC(=N)N)C(=O)N[C@@H](Cc2c[nH]cn2)C(=O)NCC(=O)NCC(=O)N2CCC[C@H]2C(N)=O)NC(=O)CNC(=O)[C@H](CC(C)C)NC(=O)CNC(=O)[C@H](CO)NC(=O)[C@H](Cc2ccc(O)cc2)NC(=O)[C@H](Cc2c[nH]cn2)NC(=O)CNC1=O` [Example 129], for which the EC50 reads like this: under setting [1], 59400 pM; under setting [2], 2280 pM.

The record behind these values is US20240174727A1, “LONG-ACTING NATRIURETIC PEPTIDES AND USES THEREOF” (Eli Lilly and Company, priority 2022, published 2024).
